For data set [1], the target named is T1, PSMA (LS174T-PSMA cells) (Homo sapiens, UniProt Q04609). As to the kind of experiment: Alternative internalization assay in LS174T-PSMA cells. The note with it: 2 h at 37° C., tested form: drawn as the indolium cation with four f.
Data set [2] addresses T1, PSMA (LS174T-PSMA cells). As to the kind of experiment: Competitive binding assay against 111In-labeled PSMA-617 using LS174T-PSMA cells. The note with it: on ice 2 h, 111In-labeled PSMA-617 as competitor, unlabeled ligand 0.01-300 nM; tested form: drawn as the indolium cation with four f.
Data set [3] can be described thus: Lipophilicity, LogD of radiolabeled ligands in PBS (pH 7.4) / n-octanol. The note with it: radiolabeled ligand, tested form: drawn as the indolium cation with four f.

The chains behind the UniProt entries cited, without tags or fusion partners.
UniProt Q04609, whole entry: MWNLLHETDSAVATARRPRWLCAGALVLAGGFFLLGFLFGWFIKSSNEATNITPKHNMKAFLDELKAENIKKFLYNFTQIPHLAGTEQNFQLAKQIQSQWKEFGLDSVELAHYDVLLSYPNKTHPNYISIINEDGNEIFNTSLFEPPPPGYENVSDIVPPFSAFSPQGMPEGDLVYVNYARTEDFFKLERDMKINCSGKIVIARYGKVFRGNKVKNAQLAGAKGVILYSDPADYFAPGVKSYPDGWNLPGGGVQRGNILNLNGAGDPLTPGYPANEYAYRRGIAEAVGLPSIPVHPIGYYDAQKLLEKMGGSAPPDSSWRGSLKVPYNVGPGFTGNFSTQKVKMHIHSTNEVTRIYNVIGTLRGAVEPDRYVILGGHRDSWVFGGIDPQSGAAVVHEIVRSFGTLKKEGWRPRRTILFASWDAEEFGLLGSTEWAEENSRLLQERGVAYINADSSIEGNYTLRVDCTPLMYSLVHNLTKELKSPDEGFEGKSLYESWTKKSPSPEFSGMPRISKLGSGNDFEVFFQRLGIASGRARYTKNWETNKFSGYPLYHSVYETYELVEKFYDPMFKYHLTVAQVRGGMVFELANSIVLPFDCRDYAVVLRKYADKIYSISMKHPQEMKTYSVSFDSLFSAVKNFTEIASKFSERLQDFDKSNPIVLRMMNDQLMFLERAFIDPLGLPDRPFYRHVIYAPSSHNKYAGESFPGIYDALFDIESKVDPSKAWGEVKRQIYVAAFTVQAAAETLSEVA

On to `CC(=O)SCC(=O)NCC(=O)NCC(=O)NCC(=O)NC(CCCCn1nnc2c1-c1ccccc1CN(C(=O)CCNC(=O)CCCCC[N+]1=C(/C=C/C3=C(Oc4ccc(S(=O)(=O)O)cc4)C(=C/C=C4/N(CCCCS(=O)(=O)[O-])c5ccc(S(=O)(=O)O)cc5C4(C)C)/CCC3)C(C)(C)c3cc(S(=O)(=O)O)ccc31)c1ccccc1-2)C(=O)NCCCC[C@H](NC(=O)[C@H](CCC(=O)O)NC(=O)c1cccnc1)C(=O)NCc1ccc(C(=O)N[C@@H](Cc2ccc3ccccc3c2)C(=O)NCCCC[C@H](NC(=O)N[C@@H](CCC(=O)O)C(=O)O)C(=O)O)cc1` (stereo partly drawn), for which, on PSMA (LS174T-PSMA cells) [1], the “Internalization Ratio (%)” value was 71.9 +/− 13.7%. This compound returned an IC50 on PSMA (LS174T-PSMA cells) [2] of 359 nM. Also, the LogD in data set [3] was -2.4.

As a reminder, the IC50 is the concentration that inhibits the measured activity by half. Usually LogD stands for the decadic logarithm of the distribution of all forms, ionised or not, between an organic phase and buffer at a given pH. A low value points to a more hydrophilic compound.

The record behind these values is US20250332290A1, “PSMA-TARGETING LIGANDS FOR MULTIMODAL APPLICATIONS” (STICHTING RADBOUD UNIVERSITAIR MEDISCH CENTRUM, priority 2021, published 2025).
